Results as given in US20170281720A1 (published 2017).

The chains behind the UniProt entries cited, without tags or fusion partners. Residues count along the entry.
UniProt Q00987, 1-125 limits assumed: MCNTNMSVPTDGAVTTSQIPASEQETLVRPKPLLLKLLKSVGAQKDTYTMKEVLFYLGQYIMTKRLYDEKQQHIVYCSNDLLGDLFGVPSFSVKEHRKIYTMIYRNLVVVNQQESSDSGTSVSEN

Tests used:
MDMX (In-house, 40 kD) = molecular target: T1, MDMX (In-house, 40 kD) (UniProt O15151 1-120, limits assumed); test: fluorescence polarization, direct binding, MDMX titrated against 10 nM labeled peptide
T1 construct: only 'In-house, 40 kD'; also called MDM4
T1 sequence (looked up): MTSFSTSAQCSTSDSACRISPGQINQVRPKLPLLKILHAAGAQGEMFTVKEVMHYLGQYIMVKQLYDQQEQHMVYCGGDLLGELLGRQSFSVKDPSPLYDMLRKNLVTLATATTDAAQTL

MDM2 (In-house, 41 kD) = molecular target: T2, MDM2 (In-house, 41 kD) (UniProt Q00987 1-125, limits assumed); test: fluorescence polarization, direct binding, MDM2 titrated against 10 nM labeled peptide
T2 construct: only 'In-house, 41 kD'; also called HDM2

B1: 5-FAM-BaLTFEHYWAQLTS-NH2 (peptide)
peptide: ALTFEHYWAQLTS
modifications: N-terminal 5-FAM; Ba = beta-alanine after the label; C-terminal amide (NH2)
notes: Linear (not crosslinked) fluorescent tracer of the FP assays; also called FAM labeled linear peptide
A Kd (MDMX (In-house, 40 kD)) of about 51 nM and a Kd (MDM2 (In-house, 41 kD)) of about 13.4 nM were found for B1 in this work.
